The series deals with Huh-7.5.1 cells. As to the kind of experiment: Cell viability in the chemical screen (Cell TiterGlo). The following applies: 10 µM compound, 72 h.

For the substance Maraviroc, the “Viability Percent DMSO” value turned out to be 163 Percent DMSO.

The values above are taken from article PMC12282101, “Heat shock protein 90 chaperone activity is required for hepatitis A virus replication” (Journal of Virology, 2025).
